Drawing on ChEMBL document CHEMBL5360615, “Pharmacological and Physicochemical Properties Optimization for Dual-Target Dopamine D3 (D3R) and μ-Opioid (MOR) Receptor Ligands as Potentially Safer Analgesics” (J Med Chem, 2023), this text covers Emax, Activity and EC50 for eight compounds.

The chains behind the UniProt entries cited, without tags or fusion partners.
UniProt P42866, whole entry: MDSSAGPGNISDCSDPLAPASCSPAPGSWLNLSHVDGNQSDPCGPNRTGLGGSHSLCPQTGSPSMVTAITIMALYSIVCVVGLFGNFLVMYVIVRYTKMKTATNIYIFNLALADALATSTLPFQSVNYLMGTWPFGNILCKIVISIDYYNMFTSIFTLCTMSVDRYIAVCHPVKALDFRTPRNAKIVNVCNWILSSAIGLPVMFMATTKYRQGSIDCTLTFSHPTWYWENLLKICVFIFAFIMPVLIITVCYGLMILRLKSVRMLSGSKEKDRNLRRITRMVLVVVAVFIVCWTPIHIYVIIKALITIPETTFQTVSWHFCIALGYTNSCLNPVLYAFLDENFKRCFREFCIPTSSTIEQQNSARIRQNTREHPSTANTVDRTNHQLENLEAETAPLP

Assay type in all cases: functional, cell-based
Assay [1] addresses Mu-type opioid receptor (Mus musculus) (UniProt P42866). Put plainly: Partial agonist activity at SNAP-tagged mouse MOR transfected in HEK293T cells coexpressing wild type Galpha-i2, venus-tagged Gbeta-1 (156 to 239 residues), venus-tagged Ggamma2 (1 to 155 residues) and Rluc8 fused masGRK3ct assessed as Galpha-i2 activation at 10 uM using coelenterazine as substrate incubated for 40 mins by BRET based GPA assay relative to control. The settings on record: filed as partial agonist. On the technique in general: In BRET a luciferase serves as donor, and the signal depends on an acceptor being close.

Assay [2] has the same target. Put plainly: Partial agonist activity at Rluc8 fused mouse MOR transfected in HEK293T cells coexpressing wild type GRK2 assessed as arrestin-3 recruitment at 10 uM using coelenterazine as substrate incubated for 40 mins by BRET assay relative to control. The settings on record: for Emax: filed as partial agonist. The procedure, abridged:
(§1)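 HEK293T cells transiently transfected with BRET sensors (DNA:PEI 1:6), plated into poly-D-lysine plates and assayed 48 h post-transfection. Cells washed and held in D-PBS 30 min at 37 °C. Coelenterazine h 5 μM final; ligands 10 μM to 0.01 nM. Venus/Rluc emission (535/475 nm) read every minute for 10 min, with a further read at 30 min, at 37 °C. […] At least three independent experiments in duplicate.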
On the technique in general: Activated receptors often draw arrestin, which recruitment assays turn into a signal.

For assay [3] the target is unchanged. The assay can be described thus: Partial agonist activity at Rluc8 fused mouse MOR transfected in HEK293T cells assessed as Nb33 recruitment at 10 uM using coelenterazine as substrate incubated for 40 mins by BRET assay relative to control.
The target is the same in assay [4]. Put plainly: Partial agonist activity at Rluc8 fused mouse MOR transfected in HEK293T cells assessed as Nb33 recruitment using coelenterazine as substrate incubated for 40 mins by BRET assay.
The target is the same in assay [5]. The assay can be described thus: Partial agonist activity at Rluc8 fused mouse MOR transfected in HEK293T cells coexpressing wild type GRK2 assessed as arrestin-3 recruitment using coelenterazine as substrate incubated for 40 mins by BRET assay.
For assay [6] the target is unchanged. Put plainly: Agonist activity at Rluc8 fused mouse MOR transfected in HEK293T cells assessed as Nb33 recruitment at 10 uM using coelenterazine as substrate incubated for 40 mins by BRET assay relative to control. The procedure, abridged:
as §1

For assay [7] the target is unchanged. The assay can be described thus: Agonist activity at SNAP-tagged mouse MOR transfected in HEK293T cells coexpressing wild type Galpha-i2, venus-tagged Gbeta-1 (156 to 239 residues), venus-tagged Ggamma2 (1 to 155 residues) and Rluc8 fused masGRK3ct assessed as Galpha-i2 activation at 10 uM using coelenterazine as substrate incubated for 40 mins by BRET based GPA assay relative to control. The settings on record: filed as agonist. In short, it runs like this: as §1

The target is the same in assay [8]. The assay can be described thus: Agonist activity at Rluc8 fused mouse MOR transfected in HEK293T cells coexpressing wild type GRK2 assessed as arrestin-3 recruitment at 10 uM using coelenterazine as substrate incubated for 40 mins by BRET assay relative to control. In short, it runs like this:
as §1

The target in another assay is Mu-type opioid receptor (Mus musculus, UniProt P42866). The assay can be described thus: Partial agonist activity at SNAP-tagged mouse MOR transfected in HEK293T cells coexpressing wild type Galpha-i2, venus-tagged Gbeta-1 (156 to 239 residues), venus-tagged Ggamma2 (1 to 155 residues) and Rluc8 fused masGRK3ct assessed as Galpha-i2 activation using coelenterazine as substrate incubated for 40 mins by BRET based GPA assay.

SMILES strings stand for the structures. The source made the active and inactive calls. The rule behind the calls is not given here.

Take `COc1ccccc1[C@@H]1C[C@H]1NCCC(C(=O)N(C)C)(c1ccccc1)c1ccccc1` (relative stereo): the values for the Emax in assay [1] and in [2] were 100% and 47.5%, respectively.

Turning to `CN(C)C(=O)C(CCN1C[C@H](F)C[C@H]1C(=O)NCCCCN1CCN(c2cccc(C(F)(F)F)n2)CC1)(c1ccccc1)c1ccccc1`, the Emax (commonly the size of the effect at its maximum, as opposed to the concentration needed) came to 15% in assay [3] and 77.6% in assay [1].

`CN(C)C(=O)C(CCN1C[C@H](O)C[C@H]1C(=O)NCCCCN1CCN(c2cccc(Cl)c2Cl)CC1)(c1ccccc1)c1ccccc1`: the Emax entry in assay [3] is “inactive”. For the same compound, the outcome in assay [4], in assay [2] and in [5] was inactive. Besides, the maximal effect (Emax) in [1] was determined as 63.7%.

Take `CN(C)C(=O)C(CCN[C@@H]1C[C@H]1c1ccc(Cl)cc1)(c1ccccc1)c1ccccc1` (relative stereo): the Activity in assay [3] (filed as partial agonist) stood at 18.6%. Further, the Emax in assay [1] amounted to 106%.

As to `CCCN(CCC(C(=O)N(C)C)(c1ccccc1)c1ccccc1)[C@@H]1C[C@H]1c1ccc(Cl)cc1` (relative stereo), the results for the maximal response (Emax) in assay [1] and in assay [2] were 110% and 43.7%, respectively.

As to `CN(C)C(=O)C(CCN1C[C@H](O)C[C@H]1C(=O)NCCCCN1CCN(c2cccc(C(F)(F)F)n2)CC1)(c1ccccc1)c1ccccc1`, the Emax result in [3] is “inactive”. In addition, the result in assay [4], in [2] and in assay [5] was inactive. Further, in assay [1], the maximum response (Emax) amounted to 76.7%.

For the compound `Clc1cccc(N2CCN(CCC3(c4ccccn4)CCOCC3)CC2)c1Cl`, the Emax was 25.7% in assay [6], 107% in assay [7] and 25.1% in assay [8].

Turning to `CCC1(CC)CC(OCCCN2CCN(c3cccc(C(F)(F)F)n3)CC2)(c2ccccn2)CCO1` (stereo not given), the Activity in assay [6] is 15.5%; in assay [2] it was 33.5%. Besides, the maximal response (Emax) in assay [1] stood at 100%. Besides, at Mu-type opioid receptor, the concentration giving a half-maximal response (EC50) – broadly, the concentration giving half of the maximal effect – was determined as 604 nM.
